Structures are written as SMILES. A value given as a limit tells only on which side of the number the result lay.

This test addresses human PDE4D7 containing UCR1 activating mutation S54D (PDE4D7*) (Homo sapiens (Human), UniProt Q08499, S129D). The test can be described thus: biochemical.
As a reminder, the IC50 is the concentration that gives 50% inhibition. A low value points to inhibition by little substance. Compound `O=C1CCC(NC2=NC(C3CC3)NC(c3cccc(Cl)c3)=N2)CN1` (stereo not shown) [Example 49, 5-((6-(3-chlorophenyl)-4-cyclopropyl-4,5-dihydro-1,3,5-triazin-2-yl)amino)piperidin-2-one] came in with an IC50 of more than 1000 nM.

In the case of `OB1OCc2cc(Nc3nc(-c4ccc(Cl)s4)nc4c3CCC4)ccc21` [Example 293, 2-(5-Chloro-2-thienyl)-N-(1-hydroxy-3H-2,1-benzoxaborol-5-yl)-6,7-dihydro-5H-cyclopenta[d]pyrimidin-4-amine], the half-maximal inhibitory concentration (IC50) was less than 1000 nM.

Take `Cc1ccc(C(=O)c2nc(-c3cccc(Cl)c3)nc3c2CCC3)cc1` [Example 70, (2-(3-Chlorophenyl)-6,7-dihydro-5H-cyclopenta[d]pyrimidin-4-yl)(p-tolyl)methanone]: the IC50 was more than 1000 nM.

Turning to `OCCc1ccc(Nc2nc(-c3cccc(Cl)c3)nc3c2CCCC3)cc1` [Example 235, 2-(4-((2-(3-Chlorophenyl)-5,6,7,8-tetrahydroquinazolin-4-yl)amino)phenyl)ethanol], the concentration for half-maximal inhibition (IC50) was less than 1000 nM.

Turning to `CCCNC(=O)Cc1ccc(Nc2nc(-c3ccc(Cl)s3)nc(C)c2CC)cc1` [Example 307, 2-[4-[[2-(5-Chloro-2-thienyl)-5-ethyl-6-methyl-pyrimidin-4-yl]amino]phenyl]-N-propyl-acetamide], the IC50 was less than 1000 nM.

`O=C(O)c1ccc(Nc2nc(-c3cccc(Cl)c3)nc(C3CC3)n2)cc1` [Example 41, 4-((4-(3-chlorophenyl)-6-cyclopropyl-1,3,5-triazin-2-yl)amino)benzoic acid] gave an IC50 of less than 1000 nM.

`O=C(O)CCc1ccc(Nc2nc(-c3ccc(Cl)s3)nc3c2CCC3)cc1` [Example 15, 3-[4-[[2-(5-Chloro-2-thienyl)-6,7-dihydro-5H-cyclopenta[d]pyrimidin-4-yl]amino]phenyl]propanoic acid] returned an IC50 of less than 1000 nM.

`Clc1ccc(-c2nc(Nc3ccc(Cc4nnn[nH]4)cc3)cc(C3CC3)n2)s1` [Example 298, 2-(5-Chloro-2-thienyl)-6-cyclopropyl-N-[4-(1H-tetrazol-5-ylmethyl)phenyl]pyrimidin-4-amine] had an IC50 of less than 1000 nM.

For `CCc1c(C)nc(-c2ccc(Cl)s2)nc1NCc1ccc(B(O)O)cc1` [Example 311, [4-[[[2-(5-Chloro-2-thienyl)-5-ethyl-6-methyl-pyrimidin-4-yl]amino]methyl]phenyl]boronic acid], the half-maximal inhibitory concentration (IC50) is more than 1000 nM.

Regarding `Clc1cccc(-c2nc3c(c(Nc4ccc(Cc5nnn[nH]5)cc4)n2)CCC3)c1` [Example 78, 2-(3-Chlorophenyl)-N-[4-(1H-tetrazol-5-ylmethyl)phenyl]-6,7-dihydro-5H-cyclopenta[d]pyrimidin-4-amine], the half-maximal inhibitory concentration (IC50) is less than 1000 nM.

With `O=C(O)c1ccc(CNc2nc(-c3ccc(Cl)cc3)nc(C3CC3)n2)cc1` [Example 45, 4-(((4-(4-chlorophenyl)-6-cyclopropyl-1,3,5-triazin-2-yl)amino)methyl)benzoic acid], the 50% inhibitory concentration (IC50) was less than 1000 nM.

With `OB1OCc2cc(Nc3nc(-c4ccc(Cl)cc4)nc4c3CCC4)ccc21` [Example 295, 2-(4-Chlorophenyl)-N-(1-hydroxy-3H-2,1-benzoxaborol-5-yl)-6,7-dihydro-5H-cyclopenta[d]pyrimidin-4-amine], the concentration for half-maximal inhibition (IC50) was less than 1000 nM.

The compound `N#CCc1ccc(Nc2nc(-c3cccc(Cl)c3)nc3c2CCC3)cc1` [Example 19, 2-[4-[[2-(3-chlorophenyl)-6,7-dihydro-5H-cyclopenta[d]pyrimidin-4-yl]amino]phenyl]acetonitrile] yielded a half-inhibitory concentration (IC50) of more than 1000 nM.

The compound `CCc1c(C)nc(-c2ccc(Cl)s2)nc1Nc1ccc(Cc2nc(C(N)=O)c[nH]2)cc1` [Example 310, 2-[[4-[[2-(5-Chloro-2-thienyl)-5-ethyl-6-methyl-pyrimidin-4-yl]amino]phenyl]methyl]-1H-imidazole-4-carboxamide] had an IC50 of more than 1000 nM.

In turn, `O=C(O)Cc1ccc(Nc2cc(C(F)(F)F)nc(-c3ccc(Cl)s3)n2)cc1` [Example 296, 2-[4-[[2-(5-Chloro-2-thienyl)-6-(trifluoromethyl)pyrimidin-4-yl]amino]phenyl]acetic acid] gave an IC50 of more than 1000 nM.

As to `CCc1nc(Nc2ccc(CC(=O)O)cc2)nc(-c2cccc(Cl)c2)n1` [Example 39, 2-(4-((4-(3-chlorophenyl)-6-ethyl-1,3,5-triazin-2-yl)amino)phenyl)acetic acid], the IC50 is less than 1000 nM.

Compound `CCc1nc(Nc2ccc(Cc3nnn[nH]3)cc2)nc(-c2cccc(Cl)c2)n1` [Example 55, N-(4-((2H-tetrazol-5-yl)methyl)phenyl)-4-(3-chlorophenyl)-6-ethyl-1,3,5-triazin-2-amine] had an IC50 of less than 1000 nM.

With `N#CNC(=O)Cc1ccc(Nc2nc(-c3cccc(Cl)c3)nc3c2SCCC3)cc1` [Example 314, 2-[4-[[2-(3-Chlorophenyl)-7,8-dihydro-6H-thiopyrano[3,2-d]pyrimidin-4-yl]amino]phenyl]-N-cyano-acetamide], the concentration for half-maximal inhibition (IC50) was less than 1000 nM.

In turn, `O=C(O)Cc1ccc(Nc2cc(C3CC3)nc(-c3ccc(Cl)s3)n2)cc1` [Example 297, 2-[4-[[2-(5-Chloro-2-thienyl)-6-cyclopropyl-pyrimidin-4-yl]amino]phenyl]acetic acid] came in with a concentration for half-maximal inhibition (IC50) of more than 1000 nM.

Consider `NC(=O)Cc1ccc(Cc2nc(-c3cccc(Cl)c3)nc3c2CCC3)cc1` [Example 68, 2-(4-((2-(3-chlorophenyl)-6,7-dihydro-5H-cyclopenta[d]pyrimidin-4-yl)methyl)phenyl)acetamide], for which the half-inhibitory concentration (IC50) was less than 1000 nM.

As to `NC(=O)Cc1ccc(Nc2cc(C3CC3)nc(-c3cccc(Cl)c3)n2)nc1` [Example 212, 2-(6-((2-(3-Chlorophenyl)-6-cyclopropylpyrimidin-4-yl)amino)pyridin-3-yl)acetamide], the concentration for half-maximal inhibition (IC50) is more than 1000 nM.

On to `NC(=O)Cc1ccc(Nc2nc(C3CCCC3)nc3c2SCCC3)cc1` [Example 284, 2-(4-((2-cyclopentyl-7,8-dihydro-6H-thiopyrano[3,2-d]pyrimidin-4-yl)amino)phenyl)acetamide], for which the IC50 was less than 1000 nM.

For `O=C(O)Cc1ccc(Nc2nc(-c3ccc(Cl)s3)nc3c2CCC3)cc1` [Example 9, 2-[4-[[2-(5-Chloro-2-thienyl)-6,7-dihydro-5H-cyclopenta[d]pyrimidin-4-yl]amino]phenyl]acetic acid], the IC50 was less than 1000 nM.

On to `O=C1NCCN1c1ccc(Nc2nc(-c3cccc(Cl)c3)nc(C3CC3)n2)cc1` [Example 53, 1-(4-((4-(3-chlorophenyl)-6-cyclopropyl-1,3,5-triazin-2-yl)amino)phenyl)imidazolidin-2-one], for which the IC50 was more than 1000 nM.

As to `CCc1nc(NC2CCN(CC(=O)O)CC2)nc(-c2cccc(Cl)c2)n1` [Example 64, 2-(4-((4-(3-chlorophenyl)-6-ethyl-1,3,5-triazin-2-yl)amino)piperidin-1-yl)acetic acid], the IC50 is more than 1000 nM.

Turning to `O=C(O)c1ccc(CNc2nc(-c3cccc(Cl)c3)nc(C3CC3)n2)cc1` [Example 46, 4-(((4-(3-chlorophenyl)-6-cyclopropyl-1,3,5-triazin-2-yl)amino)methyl)benzoic acid], the IC50 is less than 1000 nM.

For the compound `CCNC(=O)Cc1ccc(Nc2nc(-c3ccc(Cl)s3)nc(C)c2CC)cc1` [Example 309, 2-[4-[[2-(5-Chloro-2-thienyl)-5-ethyl-6-methyl-pyrimidin-4-yl]amino]phenyl]-N-ethyl-acetamide], the IC50 is less than 1000 nM.

`CC(=O)NC(C(=O)O)c1ccc(Nc2nc(-c3ccc(Cl)s3)nc3c2CCC3)cc1` (stereo not shown) [Example 11, 2-Acetamido-2-[4-[[2-(5-chloro-2-thienyl)-6,7-dihydro-5H-cyclopenta[d]pyrimidin-4-yl]amino]phenyl]acetic acid] had an IC50 of more than 1000 nM.

`Cc1ccc(Cc2nc(-c3cccc(Cl)c3)nc3c2CCC3)cc1` [Example 69, 2-(3-Chlorophenyl)-4-(4-methylbenzyl)-6,7-dihydro-5H-cyclopenta[d]pyrimidine] had an IC50 of less than 1000 nM.

Turning to `O=S1(=O)CCCc2nc(-c3cccc(Cl)c3)nc(Nc3ccc(Cc4nn[nH]n4)cc3)c21` [Example 316, 2-(3-Chlorophenyl)-5,5-dioxo-N-[4-(2H-tetrazol-5-ylmethyl)phenyl]-7,8-dihydro-6H-thiopyrano[3,2-d]pyrimidin-4-amine], the IC50 is less than 1000 nM.

For `O=C(O)Cc1ccc(Nc2cc(-c3cccc(Cl)c3)nc3c2CCC3)cc1` [Example 2, 2-[4-[[2-(3-Chlorophenyl)-6,7-dihydro-5H-cyclopenta[b]pyridin-4-yl]amino]phenyl]acetic acid], the 50% inhibitory concentration (IC50) is more than 1000 nM.

Compound `CCc1c(C)nc(-c2ccc(Cl)s2)nc1Nc1ccc(Cc2nc(C(=O)O)c[nH]2)cc1` [Example 306, 2-[[4-[[2-(5-Chloro-2-thienyl)-5-ethyl-6-methyl-pyrimidin-4-yl]amino]phenyl]methyl]-1H-imidazole-4-carboxylic acid] yielded an IC50 of more than 1000 nM.

For `N#CNC(=O)Cc1ccc(Nc2nc(-c3cccc(Cl)c3)nc3c2S(=O)(=O)CCC3)cc1` [Example 315, 2-[4-[[2-(3-Chlorophenyl)-5,5-dioxo-7,8-dihydro-6H-thiopyrano[3,2-d]pyrimidin-4-yl]amino]phenyl]-N-cyano-acetamide], the IC50 is less than 1000 nM.

On to `O=C(O)Cc1ccc(Nc2nc(-c3cccc(Cl)c3)nc3c2CCC3)cc1` [Example 10, 2-[4-[[2-(3-Chlorophenyl)-6,7-dihydro-5H-cyclopenta[d]pyrimidin-4-yl]amino]phenyl]acetic acid], for which the half-maximal inhibitory concentration (IC50) is more than 1000 nM.

In turn, `NC(=O)Cc1ccc(Nc2nc(C3CCCC3)nc3c2S(=O)(=O)CCC3)cc1` [Example 286, 2-(4-((2-cyclopentyl-5,5-dioxido-7,8-dihydro-6H-thiopyrano[3,2-d]pyrimidin-4-yl)amino)phenyl)acetamide] yielded an IC50 of less than 1000 nM.

In turn, `O=C(O)Cc1ccc(Nc2cc(C3CC3)nc(-c3cccc(Cl)c3)n2)nc1` [Example 213, 2-(6-((2-(3-Chlorophenyl)-6-cyclopropylpyrimidin-4-yl)amino)pyridin-3-yl)acetic acid] displayed an IC50 of more than 1000 nM.

`CCc1cc(Cc2ccc(CCO)cc2)nc(-c2cccc(Cl)c2)n1` [Example 67, 2-(4-((2-(3-Chlorophenyl)-6-ethylpyrimidin-4-yl)methyl)phenyl)ethanol]: the IC50 is less than 1000 nM.

These data come from US11401286B2 (Tetra Discovery Partners, LLC, priority 2012, dated 2022).
